# According to PubChem BioAssay AID488847 (NMMLSC, 2010):
# By UniProt entry, the sequences of proteins in these tests, tags left out.
# UniProt P25098, whole entry: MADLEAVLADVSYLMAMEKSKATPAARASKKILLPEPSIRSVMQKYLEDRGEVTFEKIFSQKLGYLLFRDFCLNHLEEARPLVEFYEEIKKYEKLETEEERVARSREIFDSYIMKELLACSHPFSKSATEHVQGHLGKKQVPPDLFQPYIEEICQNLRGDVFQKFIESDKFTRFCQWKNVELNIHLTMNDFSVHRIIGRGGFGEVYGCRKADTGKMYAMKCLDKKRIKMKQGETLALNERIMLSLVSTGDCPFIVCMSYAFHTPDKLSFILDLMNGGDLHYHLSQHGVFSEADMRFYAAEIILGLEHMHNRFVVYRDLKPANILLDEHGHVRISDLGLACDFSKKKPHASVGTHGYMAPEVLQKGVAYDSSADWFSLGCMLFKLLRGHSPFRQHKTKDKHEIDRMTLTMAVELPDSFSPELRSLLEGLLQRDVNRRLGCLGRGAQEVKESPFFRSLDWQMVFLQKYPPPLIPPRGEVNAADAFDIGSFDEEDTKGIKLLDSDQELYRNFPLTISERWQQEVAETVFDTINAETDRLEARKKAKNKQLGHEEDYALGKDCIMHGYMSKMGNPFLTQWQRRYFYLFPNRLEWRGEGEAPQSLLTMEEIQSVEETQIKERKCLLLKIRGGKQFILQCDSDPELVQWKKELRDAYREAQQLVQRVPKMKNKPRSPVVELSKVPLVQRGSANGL
# The entries are a selection whose mix differs from that of the whole data set. The source made the active and inactive calls.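 The calls were made as follows: active = inhibition of aptamer binding above 40%, roughly 3 SD of noise, on plates passing a quality check; inactive = the rest.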
# Biological target: Beta-adrenergic receptor kinase 1 (Homo sapiens) (UniProt P25098)
# Assay: compounds blocking aptamer binding on GRK2 – biochemical, human GRK2, bead flow cytometry, HTS, primary screen (AID 488847);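 also: median bead fluorescence of bound FAM aptamer so fluorescent compounds give negative values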
# Conditions: FAM-aptamer displacement from GRK2, at 10 µM, active compounds read high
row,SMILES,inhibition of aptamer binding
1,O=C(NCC1(N2CCOCC2)CCCCC1)c1cc2ccccc2o1,inactive: 0%
2,Cc1cc(C)cc(N(C(=O)c2ccccc2)C2CCN(C(=O)OC(C)(C)C)CC2)c1,inactive: 9%
3,O=C(NCC1(N2CCCCC2)CCCCC1)c1ccc(Cl)nc1,inactive: 0%
4,CCOC(=O)N1CCC(Nc2ccc(OC)cc2)CC1,inactive: 1%
5,COc1ccc(Cl)cc1C(=O)NCC1(N2CCOCC2)CCCCC1,inactive: 0%
6,O=C(OC1CN2CCC1CC2)C1c2ccccc2Oc2ccccc21 (stereo unspecified),inactive: 1%
7,O=C(NCC1(N2CCCCC2)CCCCC1)c1ccc(Cl)s1,inactive: 0%
8,N#CC1(Nc2ccccc2)CCN(Cc2ccccc2)CC1,inactive: 0%
9,O=C(NCC1(N2CCCCC2)CCCCC1)c1cccs1,inactive: 0%
10,O=C(NCC1(N2CCCCC2)CCCCC1)c1ccc(=O)[nH]c1,inactive: 3%
11,COc1ccc(C(=O)NCC2(N3CCCCC3)CCCCC2)c(OC)c1OC,inactive: 0%
12,CC(C)(C)OC(=O)N1CCC(N(C(=O)c2ccccc2)c2ccc(F)cc2)CC1,inactive: 0%
13,COc1ccc(C(=O)NCC2(N3CCCCC3)CCCCC2)cc1,inactive: 0%
14,CSc1ccccc1C(=O)NCC1(N2CCCCC2)CCCCC1,inactive: 0%
15,Cc1ccc(OCC(C)C)c(CN(CCCl)CCCl)c1,inactive: 0%
16,COc1cc(C(=O)NCC2(N(C)C)CCCCC2)ccc1OC(F)F,inactive: 0%
17,CCOC(=O)N1CCC(Nc2cccc(C)c2)CC1,inactive: 1%
18,CCOc1ccc(C)cc1CN(CCCl)CCCl,inactive: 0%
19,COc1ccc(NC2CCN(CCc3ccccc3)CC2)c(OC)c1,inactive: 0%
20,CCOC(=O)N1CCC(Nc2ccc(F)cc2)CC1,inactive: 0%
21,O=C(NCC1(N2CCCCC2)CCCCC1)c1ccc(F)cc1,inactive: 0%
22,O=C(NCC1(N2CCCCC2)CCCCC1)c1cccc(C(F)(F)F)c1,inactive: 0%

row,SMILES,inhibition of aptamer binding
1,CN1CCN(CCOC(=O)C(O)(c2ccccc2)c2ccccc2)CC1,inactive: 0%
2,COc1ccc(NC2CCN(C(=O)OC(C)(C)C)CC2)cc1,inactive: 0%
3,COc1cc(C(=O)NCC2(N3CCCCC3)CCCCC2)ccc1OC(F)F,inactive: 0%
4,O=C(NCC1(N2CCOCC2)CCCCC1)c1cc(=O)[nH]c2ccccc12,inactive: 3%
5,O=C(NCC1(N2CCCCC2)CCCCC1)c1ccc(OC(F)F)cc1,inactive: 0%
6,O=C(NCC1(N2CCCCC2)CCCCC1)c1cccc([N+](=O)[O-])c1,inactive: 0%
7,N#CC1(Nc2ccccc2)CCN(CCc2ccccc2)CC1,inactive: 0%
8,CCN1CCC(Nc2ccc(Cl)cc2)CC1,inactive: 5%
9,O=C(NCC1(N2CCCCC2)CCCCC1)c1cncc(Br)c1,inactive: 0%
10,CN1CCC(Nc2cccc(F)c2)CC1,inactive: 4%
11,CCCOc1ccc(C(=O)NCC2(N(C)C)CCCCC2)cc1OC,inactive: 0%
12,CN(C)c1cccc(C(=O)NCC2(N3CCCCC3)CCCCC2)c1,inactive: 0%
13,COc1ccc(CN(CCCl)CCCl)cc1Cl,inactive: 0%
14,CC(C)c1ccc(NC2CCN(C(=O)OC(C)(C)C)CC2)cc1,inactive: 0%
15,O=C(NCC1(N2CCOCC2)CCCCC1)c1cc(F)c(F)cc1Cl,inactive: 0%
16,COc1cc(OC)c(C(=O)NCC2(N(C)C)CCCCC2)cc1OC,inactive: 0%
17,N/C(=N\O)c1c(N)no[n+]1[O-],inactive: 0%
18,CCOC(=O)N1CCC(Nc2ccc(C)cc2)CC1,inactive: 0%
19,O=C(OC1CN2CCC1CC2)C1c2ccccc2C=Cc2ccccc21 (stereo unspecified),inactive: 0%
20,CCc1cc(C(=O)NCC2(N3CCCCC3)CCCCC2)sc1C,inactive: 0%
21,O=C(NCC1(N2CCOCC2)CCCCC1)c1cc(Br)ccc1Cl,inactive: 3%
22,COc1cc(C(=O)NCC2(N3CCOCC3)CCCCC2)cc(OC)c1C,inactive: 0%

row,SMILES,inhibition of aptamer binding
1,COc1ccc(C(=O)NCC2(N3CCOCC3)CCCCC2)cc1OC,inactive: 0%
2,CCCN1CCC(Nc2cc(OC)cc(OC)c2)CC1,inactive: 0%
3,c1ccc(CN2CCC(Nc3ccccc3)CC2)cc1,inactive: 0%
4,CN(C)C1(CNC(=O)c2cccc(C#N)c2)CCCCC1,inactive: 0%
5,CC(C)(C)OC(=O)N1CCC(N(C(=O)c2ccccc2)c2ccc(Cl)cc2)CC1,inactive: 5%
6,N#Cc1ccc(C(=O)NCC2(N3CCCCC3)CCCCC2)cc1,inactive: 0%
7,CCN1CCC(Nc2cccc(F)c2)CC1,inactive: 0%
8,CN(C)c1ccc(C(=O)NCC2(N3CCCCC3)CCCCC2)cc1,inactive: 5%
9,O=C(NCC1(N2CCCCC2)CCCCC1)c1ccco1,inactive: 0%
10,COc1cc(OC)cc(C(=O)NCC2(N3CCCCC3)CCCCC2)c1,inactive: 0%
11,Fc1ccccc1NC1CCN(Cc2ccccc2)CC1,inactive: 1%
12,Cc1ccc(C(=O)NCC2(N3CCCCC3)CCCCC2)o1,inactive: 0%
13,CCC(CO)(C(=O)OC1CN2CCC1CC2)c1ccccc1 (stereo unspecified),inactive: 0%
14,COc1cc(OC)cc(C(=O)NCC2(N3CCOCC3)CCCCC2)c1,inactive: 1%
15,COc1cccc(C(=O)N(c2cc(C)cc(C)c2)C2CCN(C(=O)OC(C)(C)C)CC2)c1,inactive: 0%
16,CCCOc1ccc(C)cc1CN(CCCl)CCCl,inactive: 0%
17,CN1CCC(Nc2ccc(Cl)cc2)CC1,inactive: 0%
18,CN1CCC(Nc2ccc(F)c(Cl)c2)CC1,inactive: 2%
19,CCOc1ncccc1C(=O)NCC1(N2CCOCC2)CCCCC1,inactive: 1%
20,CCCOc1ccc(C(=O)NCC2(N(C)C)CCCCC2)cc1,inactive: 3%
21,O=C(O)C1(Nc2ccccc2)CCN(Cc2ccccc2)CC1,inactive: 0%
22,CC(C)(C)OC(=O)N1CCC(Nc2ccccc2)CC1,inactive: 0%
